Values joined by “and” are separate entries in the source; they are usually repeats but may differ in a detail not shown here. Equal entries are not always repeated. The list shows a part of the results, in another mix than the full data.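 The endpoint reported here, percent growth, reads 100 for growth as untreated, 0 for no net growth and -100 for all cells dead.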 Active and inactive are the calls of the source. How the source made its calls: active means growth percent below 10; inactive means the rest.
Tested on: SNB-19 CNS
Assay: NCI-60 one-dose screen, 48 h (100 = growth as untreated, 0 = no growth, -100 = all killed)
Conditions: 10 µM

SMILES	growth
NC(=NCCN/C(N)=N/[N+](=O)[O-])N[N+](=O)[O-]	inactive: 97.3%
O=[N+]([O-])N(CCN(CC(Br)([N+](=O)[O-])[N+](=O)[O-])[N+](=O)[O-])CC(Br)([N+](=O)[O-])[N+](=O)[O-]	inactive: 108%
CN(C)Nc1c([N+](=O)[O-])cc([N+](=O)[O-])cc1[N+](=O)[O-]	inactive: 108%
O=[N+]([O-])OCCOc1ccc([N+](=O)[O-])cc1[N+](=O)[O-]	inactive: 104%
N=C(N)N(N)[N+](=O)[O-]	inactive: 102%
CCOC(=O)CSc1c(N)c(C)nn1C.O=[N+]([O-])c1cc([N+](=O)[O-])c(O)c([N+](=O)[O-])c1	inactive: 97.1%
O=[N+]([O-])c1ccc(OP2(=O)COCCO2)cc1 (centres undefined)	inactive: 103%
CCN(C)CC.O=[N+]([O-])c1cc([N+](=O)[O-])c(O)c([N+](=O)[O-])c1	inactive: 100%
OCCSCCO	inactive: 95%
CC(C)N1CCN(CCOC(=O)C(O)(c2ccccc2)c2ccccc2)CC1	inactive: 107%
O=[N+]([O-])c1ccc(Oc2c([N+](=O)[O-])cc([N+](=O)[O-])cc2[N+](=O)[O-])cc1	inactive: 104%
O=C(Cl)c1c([N+](=O)[O-])cc([N+](=O)[O-])cc1[N+](=O)[O-]	inactive: 85.8%
O=[N+]([O-])c1cc([N+](=O)[O-])c(Nc2ccc(Cl)cc2)c([N+](=O)[O-])c1	inactive: 34.7%
CNc1ccccc1.O=[N+]([O-])c1cc([N+](=O)[O-])c(O)c([N+](=O)[O-])c1	inactive: 100%
CCOP(=O)(CC)OCC	inactive: 95.8%
O=[N+]([O-])c1cc([N+](=O)[O-])c(O)c([N+](=O)[O-])c1.c1ccnnc1	inactive: 101%
CCCOP(=S)(Cl)OCCC	inactive: 99.3%
CN(C)CCS	inactive: 108% and inactive: 106%
CCN(CC)CCS	inactive: 97.6%
CN(CCCl)CCCCCCCl	inactive: 109%
Cc1ccc(Nc2c([N+](=O)[O-])cc([N+](=O)[O-])cc2[N+](=O)[O-])cc1	inactive: 99.4%
CN1CCN(CCOC(=O)C(O)(c2ccccc2)c2ccccc2)CC1	inactive: 95.8%
NN/C(N)=N/[N+](=O)[O-]	inactive: 104%
CP(=S)(Cl)N(CCCl)CCCl (centres undefined)	inactive: 91.1%
CC[N+](C)(CC)Cc1cc(Cc2ccccc2)ccc1OC(=O)N(C)C	inactive: 102%
CP(=O)(OCCCCl)N(CCCl)CCCl (centres undefined)	inactive: 109%
O=[N+]([O-])c1cccc([N+](=O)[O-])c1O	inactive: 107%
COC(=O)C(O)(c1ccccc1)c1ccccc1	inactive: 97.2%
Cc1c([N+](=O)[O-])c(C)c([N+](=O)[O-])c(Nc2c([N+](=O)[O-])c(C)c([N+](=O)[O-])c(C)c2[N+](=O)[O-])c1[N+](=O)[O-]	inactive: 22.5%

Tested on: U251 CNS
Assay: as above
Conditions: 10 µM

SMILES	growth
NC(=NCCN/C(N)=N/[N+](=O)[O-])N[N+](=O)[O-]	inactive: 105%
O=[N+]([O-])N(CCN(CC(Br)([N+](=O)[O-])[N+](=O)[O-])[N+](=O)[O-])CC(Br)([N+](=O)[O-])[N+](=O)[O-]	inactive: 96.4%
CN(C)Nc1c([N+](=O)[O-])cc([N+](=O)[O-])cc1[N+](=O)[O-]	inactive: 99.5%
O=[N+]([O-])OCCOc1ccc([N+](=O)[O-])cc1[N+](=O)[O-]	inactive: 97.5%
N=C(N)N(N)[N+](=O)[O-]	inactive: 102%
O=[N+]([O-])c1cc([N+](=O)[O-])c(C(F)(F)F)c([N+](=O)[O-])c1O	inactive: 113%
O=[N+]([O-])c1ccc(OP2(=O)COCCO2)cc1 (centres undefined)	inactive: 97.2%
CCN(C)CC.O=[N+]([O-])c1cc([N+](=O)[O-])c(O)c([N+](=O)[O-])c1	inactive: 112%
OCCSCCO	inactive: 103%
CC(C)N1CCN(CCOC(=O)C(O)(c2ccccc2)c2ccccc2)CC1	inactive: 97.2%
O=[N+]([O-])c1ccc(Oc2c([N+](=O)[O-])cc([N+](=O)[O-])cc2[N+](=O)[O-])cc1	inactive: 104%
O=C(Cl)c1c([N+](=O)[O-])cc([N+](=O)[O-])cc1[N+](=O)[O-]	inactive: 77.3%
O=[N+]([O-])c1cc([N+](=O)[O-])c(Nc2ccc(Cl)cc2)c([N+](=O)[O-])c1	active: 2.89%
CNc1ccccc1.O=[N+]([O-])c1cc([N+](=O)[O-])c(O)c([N+](=O)[O-])c1	inactive: 91.1%
CCOP(=O)(CC)OCC	inactive: 94.5%
O=[N+]([O-])c1cc([N+](=O)[O-])c(O)c([N+](=O)[O-])c1.c1ccnnc1	inactive: 100%
CCCOP(=S)(Cl)OCCC	inactive: 98%
CN(C)CCS	inactive: 104% and inactive: 98.7%
CCN(CC)CCS	inactive: 98.1%
CN(CCCl)CCCCCCCl	inactive: 99.1%
Cc1ccc(Nc2c([N+](=O)[O-])cc([N+](=O)[O-])cc2[N+](=O)[O-])cc1	inactive: 87.4%
CN1CCN(CCOC(=O)C(O)(c2ccccc2)c2ccccc2)CC1	inactive: 106%
NN/C(N)=N/[N+](=O)[O-]	inactive: 102%
CP(=S)(Cl)N(CCCl)CCCl (centres undefined)	inactive: 97.8%
CC[N+](C)(CC)Cc1cc(Cc2ccccc2)ccc1OC(=O)N(C)C	inactive: 102%
Clc1ccccc1SCCBr	inactive: 102%
CP(=O)(OCCCCl)N(CCCl)CCCl (centres undefined)	inactive: 93.1%
O=[N+]([O-])c1cccc([N+](=O)[O-])c1O	inactive: 103%
COC(=O)C(O)(c1ccccc1)c1ccccc1	inactive: 102%
Cc1c([N+](=O)[O-])c(C)c([N+](=O)[O-])c(Nc2c([N+](=O)[O-])c(C)c([N+](=O)[O-])c(C)c2[N+](=O)[O-])c1[N+](=O)[O-]	active: 4.78%

Reference: PubChem BioAssay (NCI)
